# Data as given in IntAct's records for PubMed 25203322.
# B1: Zinc finger protein SNAI1 (Homo sapiens), O95863 (parent)
# chain: MPRSFLVRKPSDPNRKPNYSELQDSNPEFTFQQPYDQAHLLAAIPPPEILNPTASLPMLIWDSVLAPQAQPIAWASLRLQESPRVAELTSLSDEDSGKGSQPPSPPSPAPSSFSSTSVSSLEAEAYAAFPGLGQVPKQLAQLSEAKDLQARKAFNCKYCNKEYLSLGALKMHIRSHTLPCVCGTCGKAFSRPWLLQGHVRTHTGEKPFSCPHCSRAFADRSNLRAHLQTHSDVKKYQCQACARTFSRMSLLHKHQESGCSGCPR
# partner: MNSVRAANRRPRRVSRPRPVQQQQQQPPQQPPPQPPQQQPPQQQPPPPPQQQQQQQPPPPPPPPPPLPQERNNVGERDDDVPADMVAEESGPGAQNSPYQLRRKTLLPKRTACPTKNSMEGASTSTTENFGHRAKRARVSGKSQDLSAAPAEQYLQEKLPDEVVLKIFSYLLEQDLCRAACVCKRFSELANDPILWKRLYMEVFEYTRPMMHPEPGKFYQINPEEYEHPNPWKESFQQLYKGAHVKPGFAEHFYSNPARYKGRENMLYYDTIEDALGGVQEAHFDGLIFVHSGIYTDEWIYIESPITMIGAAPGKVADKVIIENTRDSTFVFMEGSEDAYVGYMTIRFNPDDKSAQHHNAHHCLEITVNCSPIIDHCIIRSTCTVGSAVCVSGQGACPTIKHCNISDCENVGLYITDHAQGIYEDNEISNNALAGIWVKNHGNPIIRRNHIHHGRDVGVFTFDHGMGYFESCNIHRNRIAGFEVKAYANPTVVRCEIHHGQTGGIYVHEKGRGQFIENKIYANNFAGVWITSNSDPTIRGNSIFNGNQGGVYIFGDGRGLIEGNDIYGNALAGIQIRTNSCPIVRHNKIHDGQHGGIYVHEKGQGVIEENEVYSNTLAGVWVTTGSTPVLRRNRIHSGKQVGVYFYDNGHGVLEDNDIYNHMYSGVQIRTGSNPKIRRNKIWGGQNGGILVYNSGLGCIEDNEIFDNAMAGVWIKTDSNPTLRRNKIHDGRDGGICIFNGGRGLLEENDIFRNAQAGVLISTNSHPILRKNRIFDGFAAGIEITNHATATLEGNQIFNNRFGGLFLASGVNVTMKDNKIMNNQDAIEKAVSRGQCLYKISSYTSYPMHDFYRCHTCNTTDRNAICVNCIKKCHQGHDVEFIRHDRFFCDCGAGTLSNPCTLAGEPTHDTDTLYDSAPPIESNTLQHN
# Variants of: B1
# Settings: with fbx11_human FBXO11, Q86XK2
row,Variant,effect of a mutation on the interaction
1,L6A,disrupting interaction strength
2,R8A,disrupting interaction strength
3,S11A,disrupting interaction strength

# The remaining lines, values ahead:
row,effect of a mutation on the interaction,Variant
1,increasing interaction strength,S11E
2,disrupting interaction strength,S11V
